Patent US11059801B2

Tests used:
[1] = target: BRD4 (Homo sapiens (Human), UniProt O60885); assay: BRD4 AlphaScreen; conditions: read-out: IC50 (nM) BRD4
[2] = target: BRD4 adjoined to nanoluciferase (Nluc) (Homo sapiens (Human), UniProt O60885+Q96SW2); assay: BRD4 Dual Luciferase Assay; conditions: for DC50: read-out: BRD4 DC50 (nM) Dual Luciferase

| IC50 [1] [nM] | pDC50 (dual luc) [2] | DC50 [2] [nM] | SMILES |
| --- | --- | --- | --- |
| 25 |  |  | Cc1sc2c(c1C)C(c1ccc(Cl)cc1)=N[C@@H](CC(=O)NCCCCCCC(=O)Nc1cccc3c1CN(C1CCC(=O)NC1=O)C3=O)c1nnc(C)n1-2 (stereo partly shown) [dBET43] |
| 89 |  |  | Cc1sc2c(c1C)C(c1ccc(Cl)cc1)=N[C@@H](CC(=O)NCCOCCOCCOc1cccc3c1C(=O)N(C1CCC(=O)NC1=O)C3=O)c1nnc(C)n1-2 (stereo partly shown) [dBET40] |
| 15 |  |  | Cc1sc2c(c1C)C(c1ccc(Cl)cc1)=N[C@@H](CC(=O)NCCCOCCOCCOCCCNC(=O)COc1cccc3c1C(=O)N(C1CCC(=O)NC1=O)C3=O)c1nnc(C)n1-2 (stereo partly shown) [dBET9] |
|  | 7.663 | 22 | Cc1sc2c(c1C)C(c1ccc(Cl)cc1)=N[C@@H](CC(=O)NCCNC(=O)COc1cccc3c1C(=O)N(C1CCC(=O)NC1=O)C3=O)c1nnc(C)n1-2 (stereo partly shown) [dBET3] |
| 80 |  | 47 | Cc1sc2c(c1C)C(c1ccc(Cl)cc1)=N[C@@H](CC(=O)NCCCCNC(=O)Cc1cccc3c1C(=O)N(C1CCC(=O)NC1=O)C3=O)c1nnc(C)n1-2 (stereo partly shown) [dBET36] |

The remaining lines, values behind:

| SMILES | IC50 [1] [nM] | pDC50 (dual luc) [2] | DC50 [2] [nM] |
| --- | --- | --- | --- |
| Cc1sc2c(c1C)C(c1ccc(Cl)cc1)=N[C@@H](CC(=O)NCCCCCC(=O)NCc1cccc3c1C(=O)N(C1CCC(=O)NC1=O)C3=O)c1nnc(C)n1-2 (stereo partly shown) [dBET37] | 13 |  |  |
| Cc1sc2c(c1C)C(c1ccc(Cl)cc1)=N[C@@H](CC(=O)NCCCCCCNC(=O)COc1cccc3c1C(=O)N(C1CCC(=O)NC1=O)C3=O)c1nnc(C)n1-2 (stereo partly shown) [dBET5] |  | 7.167 | 68 |
| Cc1sc2c(c1C)C(c1ccc(Cl)cc1)=N[C@@H](CC(=O)NCCCCC(=O)Nc1cccc3c1CN(C1CCC(=O)NC1=O)C3=O)c1nnc(C)n1-2 (stereo partly shown) [dBET42] | 27 |  |  |
| Cc1sc2c(c1C)C(c1ccc(Cl)cc1)=N[C@@H](CC(=O)NCCCCCCCC(=O)Nc1cccc3c1CN(C1CCC(=O)NC1=O)C3=O)c1nnc(C)n1-2 (stereo partly shown) [dBET44] | 30 |  |  |
| Cc1sc2c(c1C)C(c1ccc(Cl)cc1)=N[C@@H](CC(=O)NCc1ccc(CNC(=O)COc3cccc4c3C(=O)N(C3CCC(=O)NC3=O)C4=O)cc1)c1nnc(C)n1-2 (stereo partly shown) [dBET41] | 63 |  | 25 |
| Cc1sc2c(c1C)C(c1ccc(Cl)cc1)=N[C@@H](CC(=O)NCCCCNC(=O)CNc1cccc3c1CN(C1CCC(=O)NC1=O)C3=O)c1nnc(C)n1-2 (stereo partly shown) [dBET35] | 7.2 |  |  |
| Cc1sc2c(c1C)C(c1ccc(Cl)cc1)=N[C@@H](CC(=O)NCCCOCCCNC(=O)COc1cccc3c1C(=O)N(C1CCC(=O)NC1=O)C3=O)c1nnc(C)n1-2 (stereo partly shown) [dBET38] | 31 |  | 15 |
| Cc1sc2c(c1C)C(c1ccc(Cl)cc1)=N[C@@H](CC(=O)NCCCCCCNC(=O)c1ccc3c(c1)C(=O)N(C1CCC(=O)NC1=O)C3=O)c1nnc(C)n1-2 (stereo partly shown) [dBET15] |  | 6.475 | 335 |
